Measured values as given in article PMC10766536 (The Journal of Antibiotics, 2023).

Sequences of proteins named here, by UniProt entry; tags and fusion partners are left off.
UniProt P08183, whole entry: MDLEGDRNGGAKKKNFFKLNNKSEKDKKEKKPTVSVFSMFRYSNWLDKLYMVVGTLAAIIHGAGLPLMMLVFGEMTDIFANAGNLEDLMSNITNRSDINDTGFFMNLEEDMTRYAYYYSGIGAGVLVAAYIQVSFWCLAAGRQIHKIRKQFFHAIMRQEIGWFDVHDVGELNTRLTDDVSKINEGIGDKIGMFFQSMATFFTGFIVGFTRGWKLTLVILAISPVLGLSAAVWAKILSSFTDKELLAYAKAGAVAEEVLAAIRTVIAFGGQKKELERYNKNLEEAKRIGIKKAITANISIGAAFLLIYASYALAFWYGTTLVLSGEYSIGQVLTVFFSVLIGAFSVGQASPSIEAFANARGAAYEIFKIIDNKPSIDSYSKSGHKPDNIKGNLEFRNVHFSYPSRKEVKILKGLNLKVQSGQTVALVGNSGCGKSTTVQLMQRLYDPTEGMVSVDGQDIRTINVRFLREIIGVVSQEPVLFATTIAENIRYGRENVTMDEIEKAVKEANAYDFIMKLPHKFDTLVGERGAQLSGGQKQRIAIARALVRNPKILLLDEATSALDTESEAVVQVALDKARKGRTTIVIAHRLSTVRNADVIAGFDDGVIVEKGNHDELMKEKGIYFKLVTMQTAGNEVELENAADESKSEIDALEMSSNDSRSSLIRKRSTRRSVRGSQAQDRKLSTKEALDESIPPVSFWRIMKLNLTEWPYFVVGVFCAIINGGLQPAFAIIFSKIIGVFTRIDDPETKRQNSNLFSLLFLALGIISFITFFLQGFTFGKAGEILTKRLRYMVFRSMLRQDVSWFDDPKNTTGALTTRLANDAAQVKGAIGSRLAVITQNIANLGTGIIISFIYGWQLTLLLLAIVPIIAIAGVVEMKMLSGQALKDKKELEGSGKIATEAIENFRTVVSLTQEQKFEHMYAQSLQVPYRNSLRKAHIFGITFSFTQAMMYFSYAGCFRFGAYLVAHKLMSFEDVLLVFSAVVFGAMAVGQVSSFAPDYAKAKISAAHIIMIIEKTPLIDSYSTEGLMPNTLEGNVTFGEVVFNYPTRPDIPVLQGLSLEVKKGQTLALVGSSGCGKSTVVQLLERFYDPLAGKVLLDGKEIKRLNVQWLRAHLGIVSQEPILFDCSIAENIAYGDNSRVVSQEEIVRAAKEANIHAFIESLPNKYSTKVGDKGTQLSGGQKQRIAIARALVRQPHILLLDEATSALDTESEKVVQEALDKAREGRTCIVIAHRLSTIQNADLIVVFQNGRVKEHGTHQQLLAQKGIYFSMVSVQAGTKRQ
UniProt P10635, whole entry: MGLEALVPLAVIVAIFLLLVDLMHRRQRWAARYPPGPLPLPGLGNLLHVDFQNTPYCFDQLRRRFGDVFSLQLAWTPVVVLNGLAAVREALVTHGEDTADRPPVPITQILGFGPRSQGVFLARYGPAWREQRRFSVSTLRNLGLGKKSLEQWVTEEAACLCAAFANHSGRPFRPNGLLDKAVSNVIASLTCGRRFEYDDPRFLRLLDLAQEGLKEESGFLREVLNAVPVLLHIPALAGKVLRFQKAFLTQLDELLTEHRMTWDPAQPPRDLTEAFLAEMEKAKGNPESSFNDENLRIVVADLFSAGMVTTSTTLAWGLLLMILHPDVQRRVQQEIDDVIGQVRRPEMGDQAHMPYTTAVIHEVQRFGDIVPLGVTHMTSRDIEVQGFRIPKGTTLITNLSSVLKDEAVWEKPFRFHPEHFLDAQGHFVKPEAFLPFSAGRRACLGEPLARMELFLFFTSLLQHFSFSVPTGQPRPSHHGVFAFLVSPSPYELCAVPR
UniProt P33261, whole entry: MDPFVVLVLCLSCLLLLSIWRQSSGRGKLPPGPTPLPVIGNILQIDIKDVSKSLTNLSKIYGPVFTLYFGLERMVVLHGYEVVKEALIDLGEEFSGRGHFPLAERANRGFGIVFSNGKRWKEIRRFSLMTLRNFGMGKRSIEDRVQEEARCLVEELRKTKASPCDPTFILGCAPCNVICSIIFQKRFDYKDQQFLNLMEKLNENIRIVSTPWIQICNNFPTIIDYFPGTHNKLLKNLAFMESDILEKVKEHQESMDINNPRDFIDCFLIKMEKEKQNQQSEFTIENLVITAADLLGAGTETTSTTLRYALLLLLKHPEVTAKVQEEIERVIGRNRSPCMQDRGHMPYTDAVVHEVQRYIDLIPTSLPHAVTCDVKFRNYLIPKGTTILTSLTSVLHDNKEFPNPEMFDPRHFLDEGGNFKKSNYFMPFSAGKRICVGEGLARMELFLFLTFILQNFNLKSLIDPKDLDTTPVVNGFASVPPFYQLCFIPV

Key:
[1] = tested on: Caco-2: endogenous transporters; assay: Caco-2 permeability
[2] = molecular target: MDCK-MDR1: overexpression of Pgp (Homo sapiens, UniProt P08183); assay: MDCK-MDR1 permeability and efflux
CYP 2D6 = CYP 2D6 (Homo sapiens, UniProt P10635); assay: CYP inhibition; settings: read-out: CYP inhibition IC50; CYP 2D6, substrate Dextromethorphan; ND = Not Detected
Sprague Dawley rats = assay: 2-week IV once-a-day toxicity study with 2-week recovery in Sprague Dawley rats; format: in vivo
CYP 2C19 = CYP 2C19 (Homo sapiens, UniProt P33261)
[3] = S9 microsome stability, CD-1 mouse; settings: text statement for rodent (mouse and rat) S9

Question: For `CO[C@H]1/C=C/O[C@@]2(C)Oc3c(C)c(O)c4c(=O)c(c5oc6cc(OCCN(C)C)cc(O)c6nc-5c4c3C2=O)NC(=O)/C(C)=C\C=C\[C@H](C)[C@H](O)[C@@H](C)[C@@H](O)[C@@H](C)[C@H](OC(C)=O)[C@@H]1C`, which Papp B→A [1] is on record?
Answer: 2.92 ×10⁻⁶ cm/s

Question: What about the Mean (B-A/A-B) Efflux Ratio ([1]; Caco-2) of the same molecule?
Answer: 2.49

Question: And the Papp A→B [2]?
Answer: 1.33 ×10⁻⁶ cm/s

Question: And the Papp B→A [2]?
Answer: 10.4 ×10⁻⁶ cm/s

Question: What about the recovery [2] of the same molecule?
Answer: 48.2% and 46.3%

Question: And the Mean (B-A/A-B) Efflux Ratio ([2]; MDCK-MDR1)?
Answer: 7.8

Question: And the IC50 (CYP 2D6)?
Answer: 2810 nM

Question: What about the “dose with apparent minimal prolongation of activated partial thromboplastin time in males” value (Sprague Dawley rats; after 14-day recovery period) of the same molecule?
Answer: 10 mg/kg/day

Question: And the albumin concentration (Sprague Dawley rats; combination with vancomycin, end of treatment)?
Answer: minimal decrease

Question: What about the tolerability (Sprague Dawley rats; rat, IV QD 14 days, 0.1-10 mg/kg/day) of the same molecule?
Answer: well-tolerated

Question: What about the IC50 (CYP 2C19) of the same molecule?
Answer: 2540 nM

Question: What about the “half-lives, rodent S9 microsomal stability” value [3] of the same molecule?
Answer: greater than 120 min

“And” between values parts separate entries of the source, which are not always exact repeats. Equal entries are not always repeated.
